Biological target: Human Cot (Homo sapiens (Human), UniProt P41279)
Test: High Throughput Cot Biochemical Assay
Conditions: IC50 HTRF, Cot HTRF (TR-FRET) biochemical assay

Sequences of proteins named here, by UniProt entry; tags and fusion partners are left off. Residues count along the entry.
UniProt P41279, 30-397: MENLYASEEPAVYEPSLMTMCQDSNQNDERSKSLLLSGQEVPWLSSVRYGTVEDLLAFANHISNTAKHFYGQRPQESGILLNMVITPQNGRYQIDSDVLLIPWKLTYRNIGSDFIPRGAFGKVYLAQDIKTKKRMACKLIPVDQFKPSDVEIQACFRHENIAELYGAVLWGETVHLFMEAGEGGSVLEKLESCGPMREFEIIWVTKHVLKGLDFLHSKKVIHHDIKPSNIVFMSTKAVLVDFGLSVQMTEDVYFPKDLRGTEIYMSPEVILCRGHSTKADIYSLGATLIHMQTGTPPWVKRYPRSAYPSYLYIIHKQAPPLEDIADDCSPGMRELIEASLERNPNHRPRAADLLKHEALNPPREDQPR

Point of comparison: CC(C)(C)CNc1c(C#N)cnc2c(Cl)cc(N[C@H](c3cn(C4(C(F)(F)F)CC4)nn3)c3ccc(Cl)c4cnccc34)cc12 [Example 651, (S)-8-chloro-6-(((8-chloroisoquinolin-5-yl)(1-(1-(trifluoromethyl)cyclopropyl)-1H-1,2,3-triazol-4-yl)methyl)amino)-4-(neopentylamino)quinoline-3-carbonitrile], IC50 0.014 µM. Against it:
- CC(C)n1cc([C@@H](Nc2cc(Cl)c3ncc(C#N)c(Nc4ccc(F)c(Cl)c4)c3c2)c2cocn2)nn1 [Example 312, (S)-8-chloro-4-((3-chloro-4-fluorophenyl)amino)-6-(((1-isopropyl-1H-1,2,3-triazol-4-yl)(oxazol-4-yl)methyl)amino)quinoline-3-carbonitrile] — within 1.5-fold, 0.013 µM
- N#Cc1cnc2c(Cl)cc(N[C@@H](c3cccnc3)c3cn(C4CCN(C5COC5)CC4)nn3)cc2c1Nc1ccc(F)c(Cl)c1 [Example 314, (S)-8-chloro-4-((3-chloro-4-fluorophenyl)amino)-6-(((1-(1-(oxetan-3-yl)piperidin-4-yl)-1H-1,2,3-triazol-4-yl)(pyridin-3-yl)methyl)amino)quinoline-3-carbonitrile] — within 1.5-fold, 0.015 µM
- CC(C)n1cc([C@@H](Nc2cc(Cl)c3ncc(C#N)c(Nc4ccc(F)c(Cl)c4)c3c2)c2cc(C#N)cs2)nn1 [Example 338, (R)-8-chloro-4-((3-chloro-4-fluorophenyl)amino)-6-(((4-cyanothiophen-2-yl)(1-isopropyl-1H-1,2,3-triazol-4-yl)methyl)-amino)quinoline-3-carbonitrile] — within 1.5-fold, 0.013 µM
- N#Cc1csc([C@H](Nc2cc(Cl)c3ncc(C#N)c(Nc4ccc(F)c(Cl)c4)c3c2)c2cn(C3COC3)nn2)c1 [Example 339, (R)-8-chloro-4-((3-chloro-4-fluorophenyl)amino)-6-(((4-cyanothiophen-2-yl)(1-(oxetan-3-yl)-1H-1,2,3-triazol-4-yl)methyl)amino)-quinoline-3-carbonitrile] — within 1.5-fold, 0.013 µM
- CC(C)(C)N1CCC(n2cc([C@@H](Nc3cc(Cl)c4ncc(C#N)c(Nc5ccc(F)c(Cl)c5)c4c3)c3cocn3)nn2)CC1 [Example 348, (S)-6-(((1-(1-(tert-butyl)piperidin-4-yl)-1H-1,2,3-triazol-4-yl)(oxazol-4-yl)methyl)amino)-8-chloro-4-((3-chloro-4-fluorophenyl)amino)-quinoline-3-carbonitrile] — within 1.5-fold, 0.013 µM
- CC(C)(C)n1cc([C@@H](Nc2cc(Cl)c3ncc(C#N)c(Nc4ccc(F)c(Cl)c4)c3c2)c2cscn2)nn1 [Example 361, (S)-6-(((1-(tert-butyl)-1H-1,2,3-triazol-4-yl)(thiazol-4-yl)methyl)-amino)-8-chloro-4-((3-chloro-4-fluorophenyl)amino)quinoline-3-carbonitrile] — within 1.5-fold, 0.013 µM
- CCN1CCC(n2cc(C(Nc3cc(Cl)c4ncc(C#N)c(Nc5ccc(F)c(Cl)c5)c4c3)c3ncccn3)nn2)CC1 (stereo not shown) [Example 367, 8-chloro-4-((3-chloro-4-fluorophenyl)amino)-6-(((1-(1-ethylpiperidin-4-yl)-1H-1,2,3-triazol-4-yl)(pyrimidin-2-yl)methyl)-amino)quinoline-3-carbonitrile] — within 1.5-fold, 0.013 µM
- CCN1CCC(n2cc([C@@H](Nc3cc(Cl)c4ncc(C#N)c(Nc5ccc(F)c(Cl)c5)c4c3)c3cccs3)nn2)CC1 [Example 380, (R)-8-chloro-4-((3-chloro-4-fluoro-phenyl)amino)-6-(((1-(1-ethylpiperidin-4-yl)-1H-1,2,3-triazol-4-yl)(thiophen-2-yl)methyl)amino)quinoline-3-carbonitrile] — the same, 0.014 µM
- CCN1CCC(n2cc([C@@H](Nc3cc(Cl)c4ncc(C#N)c(Nc5ccc(F)c(Cl)c5)c4c3)c3ccc(Cl)s3)nn2)CC1 [Example 382, (R)-8-chloro-4-((3-chloro-4-fluoro-phenyl)amino)-6-(((5-chlorothiophen-2-yl)(1-(1-ethylpiperidin-4-yl)-1H-1,2,3-triazol-4-yl)methyl)amino)quinoline-3-carbonitrile] — the same, 0.014 µM
- N#Cc1cnc2c(Cl)cc(N[C@H](c3cn(C4CCNCC4)nn3)c3cc(Cl)cs3)cc2c1Nc1ccc(F)c(Cl)c1 [Example 385, (R)-8-chloro-4-((3-chloro-4-fluoro-phenyl)amino)-6-(((4-chlorothiophen-2-yl)(1-(piperidin-4-yl)-1H-1,2,3-triazol-4-yl)methyl)amino)quinoline-3-carbonitrile] — the same, 0.014 µM
- CC(C)(C)CNc1c(C#N)cnc2c(Br)cc(N[C@H](c3cn(C4(C(F)(F)F)CC4)nn3)c3cccc4ncsc34)cc12 [Example 439, (S)-6-((benzo[d]thiazol-7-yl(1-(1-(trifluoromethyl)cyclopropyl)-1H-1,2,3-triazol-4-yl)methyl)amino)-8-bromo-4-(neopentylamino)quinoline-3-carbonitrile] — within 1.5-fold, 0.013 µM
- Cn1ncc2c([C@H](Nc3cc(Cl)c4ncc(C#N)c(NCC(C)(C)C)c4c3)c3cn(C4(C(F)(F)F)CC4)nn3)cccc21 [Example 543, (S)-8-chloro-6-(((1-methyl-1H-indazol-4-yl)(1-(1-(trifluoromethyl)cyclopropyl)-1H-1,2,3-triazol-4-yl)methyl)amino)-4-(neopentylamino)quinoline-3-carbonitrile] — within 1.5-fold, 0.013 µM
- Cc1nc(F)ccc1[C@H](Nc1cc(Cl)c2ncc(C#N)c(N[C@H](C)C(C)(C)C)c2c1)c1cn(C2(C(F)(F)F)CC2)nn1 [Example 582, 8-chloro-4-(((R)-3,3-dimethylbutan-2-yl)amino)-6-(((S)-(6-fluoro-2-methylpyridin-3-yl)(1-(1-(trifluoromethyl)cyclopropyl)-1H-1,2,3-triazol-4-yl)methyl)amino)quinoline-3-carbonitrile] — the same, 0.014 µM
- Cc1nc(F)ccc1[C@H](Nc1cc(C#N)c2ncc(C#N)c(NC3CCCCC3)c2c1)c1cn(C2(C(F)(F)F)CC2)nn1 [Example 585, (S)-4-(cyclohexylamino)-6-(((6-fluoro-2-methylpyridin-3-yl)(1-(1-(trifluoromethyl)-cyclopropyl)-1H-1,2,3-triazol-4-yl)methyl)amino)quinoline-3,8-dicarbonitrile] — 2.6-fold higher, 0.037 µM
- CC(C)(C)CNc1c(C#N)cnc2c(Cl)cc(N[C@H](c3cn(C4(C(F)(F)F)CC4)nn3)c3cccn4cncc34)cc12 [Example 599, (S)-8-chloro-6-((imidazo[1,5-a]pyridin-8-yl(1-(1-(trifluoromethyl)cyclopropyl)-1H-1,2,3-triazol-4-yl)methyl)amino)-4-(neopentylamino)quinoline-3-carbonitrile] — within 1.5-fold, 0.013 µM
- Cc1nc(F)ccc1[C@H](Nc1cc(C#N)c2ncc(C#N)c(N[C@@H](c3ccccc3)C3CC3)c2c1)c1cn(C2(C(F)(F)F)CC2)nn1 [Example 613, 4-(((R)-cyclopropyl(phenyl)methyl)amino)-6-(((S)-(6-fluoro-2-methylpyridin-3-yl)(1-(1-(trifluoromethyl)cyclopropyl)-1H-1,2,3-triazol-4-yl)methyl)amino)quinoline-3,8-dicarbonitrile] — within 1.5-fold, 0.013 µM
- CC(C)(C)CNc1c(C#N)cnc2c(Cl)cc(N[C@H](c3cn(C4(C(F)(F)F)CC4)nn3)c3ccc(F)c4cnccc34)cc12 [Example 616, (S)-8-chloro-6-(((8-fluoroisoquinolin-5-yl)(1-(1-(trifluoromethyl)cyclopropyl)-1H-1,2,3-triazol-4-yl)methyl)amino)-4-(neopentylamino)quinoline-3-carbonitrile] — within 1.5-fold, 0.012 µM
- Cn1ncc2c([C@H](Nc3cc(Cl)c4ncc(C#N)c(NCC(C)(C)C)c4c3)c3cn(Cc4c(F)cccc4F)nn3)cccc21 [Example 655, (S)-8-chloro-6-(((1-(2,6-difluorobenzyl)-1H-1,2,3-triazol-4-yl)(1-methyl-1H-indazol-4-yl)methyl)amino)-4-(neopentylamino)quinoline-3-carbonitrile] — within 1.5-fold, 0.012 µM
- Cc1ncoc1[C@H](Nc1cc(C#N)c2ncc(C#N)c(NCC(C)(C)C)c2c1)c1cn(C2(C(F)F)CC2)nn1 [Example 657, (R)-6-(((1-(1-(difluoromethyl)-cyclopropyl)-1H-1,2,3-triazol-4-yl)(4-methyloxazol-5-yl)methyl)amino)-4-(neopentylamino)quinoline-3,8-dicarbonitrile] — 2.6-fold higher, 0.037 µM
- Cn1ccc2c([C@H](Nc3cc(C#N)c4ncc(C#N)c(NCC(C)(C)C)c4c3)c3cn(C4(C(F)(F)F)CC4)nn3)ccnc21 [Example 664, (S)-6-(((1-methyl-1H-pyrrolo[2,3-b]pyridin-4-yl)(1-(1-(trifluoromethyl)cyclopropyl)-1H-1,2,3-triazol-4-yl)methyl)amino)-4-(neopentylamino)quinoline-3,8-dicarbonitrile] — within 1.5-fold, 0.012 µM
- [2H]C([2H])(Nc1c(C#N)cnc2c(Cl)cc(N[C@@]([2H])(c3ccc(N(C)C)nc3)c3cn(C4CC4)nn3)cc12)C(C)(C)C [Example 679, (S)-8-chloro-6-(((1-cyclopropyl-1H-1,2,3-triazol-4-yl)(6-(dimethylamino)pyridin-3-yl)methyl-d)amino)-4-((2,2-dimethylpropyl-1,1-d2)amino)quinoline-3-carbonitrile] — within 1.5-fold, 0.013 µM
- Cc1ccc([C@H](Nc2cc(Cl)c3ncc(C#N)c(NCC(C)(C)C)c3c2)c2cn(C3(C(F)(F)F)CC3)nn2)c(C)n1 [Example 687, (S)-8-chloro-6-(((2,6-dimethylpyridin-3-yl)(1-(1-(trifluoromethyl)cyclopropyl)-1H-1,2,3-triazol-4-yl)methyl)amino)-4-(neopentylamino)quinoline-3-carbonitrile] — within 1.5-fold, 0.015 µM

Same assay, conditions: read-out: IC50 HTRF; Cot HTRF (TR-FRET) biochemical assay

Point of comparison: Cn1nccc1[C@H](Nc1cc(Cl)c2ncc(C#N)c(NCC(C)(C)C)c2c1)c1cn(C2(C(F)(F)F)CC2)nn1 [Example 666, (S)-8-chloro-6-(((1-methyl-1H-pyrazol-S-yl)(1-(1-(trifluoromethyl)cyclopropyl)-1H-1,2,3-triazol-4-yl)methyl)amino)-4-(neopentylamino)quinoline-3-carbonitrile], IC50 0.013 µM. Against it:
- N#Cc1cnc2c(Cl)cc(N[C@H](c3cn(CCO)nn3)c3ccc(Cl)nc3Cl)cc2c1Nc1ccc(F)c(Cl)c1 [Example 329, (S)-8-chloro-4-4-((3-chloro-4-fluorophenyl)amino)-6-(((2,6-dichloropyridin-3-yl)(1-(2-hydroxyethyl)-1H-1,2,3-triazol-4-yl)methyl)amino)-quinoline-3-carbonitrile] — within 1.5-fold, 0.014 µM

Source: patent publication US11066414B2, “Cot modulators and methods of use thereof” (Gilead Sciences, Inc., priority 2015, dated 2021)
